Measurements reported in PMC13649712.

What was measured:
[1] = target: mouse PER1 1013-1291 (mouse) (UniProt O35973); experiment: ITC; MicroCal PEAQ-ITC, 25 °C; 25 mM HEPES pH 7.5, 150 mM NaCl, 5% glycerol, 1 mM β-ME; 750 µM WDR5 (syringe) into 50 µM PER1, PER2 or RbBP5 (cell); 90 µM PER1 or PER2 (syringe) into 8 µM CRY1 1-496 (cell); one-site binding model; mean of triplicates
[2] = target: mouse PER2 1132-1252 (mouse) (UniProt O54943); experiment: as above

Kd [1] [µM]	Kd [2] [µM]	Substance
3.1	50	mouse WDR5 22-334 (from UniProt P61965 22-334) (domain or fragment; other documents disagree on this pair)
7.3		mouse WDR5 22-334 N225A (from UniProt P61965 22-334) (domain or fragment; other documents disagree on this pair)
